In publication PMC8588041, “Protective Role of Flavonoids against Intestinal Pro-Inflammatory Effects of Silver Nanoparticles” (Molecules, 2021):

System: Caco-2 cell line
Assay: MTT reduction assay, cytotoxicity in Caco-2 cells
Details: AgNO3 concentrations higher than 4.5 μg/mL, Caco-2, 24 h
Description: Cells were grown in a 5% CO2 atmosphere at 37 °C. For each experiment, the cells were used when reaching 80% of confluence, which represented 3 to 5 days of differentiation. Then, the proliferating Caco-2 cells were treated 24 h after seeding.
The MTT reduction assay was used to determine the cytotoxicity of PEI coated-AgNP of two sizes (4 and 19 nm) in the Caco-2 cell line. […] After the exposure period, the culture medium was replaced with fresh medium containing 0.5 mg/mL MTT and the cells were further incubated for 2 h. The resulting dark purple crystals of formazan were then dissolved in DMSO and the absorbance of the corresponding solution, which was directly proportional to the number of living cells, was measured in an automatic plate reader set at a test wavelength of 570 nm and a reference wavelength of 620 nm.

With `O=[N+]([O-])[O-].[Ag+]` [AgNO3, Silver nitrate, reference compound] the Cytotoxic effect was “above 50%”.
